The results in this text go back to patent US9527840B2, “Substituted-quinoxaline-type piperidine compounds and the uses thereof” (priority 2007, dated 2016).

The chains behind the UniProt entries cited, without tags or fusion partners. Where a name states a change or a piece, a line headed by the entry shows the natural chain unless it says otherwise.
UniProt P41143: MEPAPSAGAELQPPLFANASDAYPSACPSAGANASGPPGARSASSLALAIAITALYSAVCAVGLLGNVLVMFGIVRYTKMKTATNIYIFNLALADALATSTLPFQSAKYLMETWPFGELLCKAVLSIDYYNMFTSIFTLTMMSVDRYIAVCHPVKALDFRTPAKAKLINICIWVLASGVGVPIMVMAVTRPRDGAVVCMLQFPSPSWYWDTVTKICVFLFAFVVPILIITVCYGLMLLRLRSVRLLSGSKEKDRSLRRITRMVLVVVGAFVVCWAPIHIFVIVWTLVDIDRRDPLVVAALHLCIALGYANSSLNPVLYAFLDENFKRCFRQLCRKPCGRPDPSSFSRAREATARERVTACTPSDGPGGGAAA
UniProt P41145: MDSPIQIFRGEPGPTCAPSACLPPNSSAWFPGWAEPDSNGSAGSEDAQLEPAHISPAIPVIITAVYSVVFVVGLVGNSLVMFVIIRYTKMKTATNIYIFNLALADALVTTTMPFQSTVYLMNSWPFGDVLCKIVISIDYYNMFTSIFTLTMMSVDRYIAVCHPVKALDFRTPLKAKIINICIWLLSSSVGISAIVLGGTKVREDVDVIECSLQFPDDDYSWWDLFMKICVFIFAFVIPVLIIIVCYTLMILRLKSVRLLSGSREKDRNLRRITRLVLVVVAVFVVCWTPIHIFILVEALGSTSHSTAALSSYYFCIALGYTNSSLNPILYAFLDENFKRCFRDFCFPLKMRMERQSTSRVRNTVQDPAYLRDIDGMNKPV
UniProt P35372: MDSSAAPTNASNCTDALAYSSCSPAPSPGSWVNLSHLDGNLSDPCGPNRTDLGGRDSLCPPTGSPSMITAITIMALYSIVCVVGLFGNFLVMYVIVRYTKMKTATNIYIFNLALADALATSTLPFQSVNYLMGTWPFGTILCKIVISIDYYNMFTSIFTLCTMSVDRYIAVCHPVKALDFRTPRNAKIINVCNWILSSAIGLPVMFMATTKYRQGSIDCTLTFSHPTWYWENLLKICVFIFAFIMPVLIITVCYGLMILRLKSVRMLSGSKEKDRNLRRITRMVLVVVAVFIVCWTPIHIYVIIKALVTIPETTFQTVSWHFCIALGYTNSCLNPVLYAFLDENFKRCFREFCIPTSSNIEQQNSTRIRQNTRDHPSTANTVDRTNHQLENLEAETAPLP
UniProt P41146: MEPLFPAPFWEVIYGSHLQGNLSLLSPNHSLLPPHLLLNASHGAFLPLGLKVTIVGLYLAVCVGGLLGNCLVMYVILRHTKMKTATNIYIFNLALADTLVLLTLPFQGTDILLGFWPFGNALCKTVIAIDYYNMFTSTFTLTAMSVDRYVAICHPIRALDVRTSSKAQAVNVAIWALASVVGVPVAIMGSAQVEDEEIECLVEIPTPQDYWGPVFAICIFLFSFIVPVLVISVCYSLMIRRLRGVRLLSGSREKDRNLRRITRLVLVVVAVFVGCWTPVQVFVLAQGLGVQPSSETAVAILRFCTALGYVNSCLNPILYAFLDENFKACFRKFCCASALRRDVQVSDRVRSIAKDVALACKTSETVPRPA

In general, EC50 refers to the concentration at which the effect is half-maximal.

Some results are limits rather than exact numbers.

The test system of data set [1] is FCA-induced inflammation of the rat hind paw. Put plainly: Freund's complete adjuvant (FCA) model of inflammatory pain. It counts as in vivo.
Data set [2] can be described thus: Abnormal behavioral side effects (sedation, hyperactivity, hypoactivity). Particulars: rat, in vivo.
Data set [3] addresses recombinant delta opioid receptor (Homo sapiens, UniProt P41143). The data set is described as follows: In vitro delta-opioid receptor binding assay ([3H]-Naltrindole displacement). Particulars: read-out: Ki [Average ± Std Deviation] Opioid Receptor Delta; CHO-K1 cell membranes.
The target of the next data set is kappa opioid receptor (Homo sapiens, UniProt P41145). Put plainly: In vitro kappa-opioid receptor functional assay ([35S]GTPγS). It counts as biochemical. Particulars: mean ± SEM; for EC50: read-out: Kappa opioid receptor GTPγS EC50.
For data set [4], the target named is T1, μ-opioid receptor (Homo sapiens, UniProt P35372). The data set is described as follows: In vitro mu-opioid receptor functional assay ([35S]GTPγS). It counts as biochemical. Conditions: mean ± SEM. A general note: GTPγS resists hydrolysis and so accumulates on activated G proteins.
Data set [5] concerns the target T2, human opioid receptor-like (ORL-1) (Homo sapiens, UniProt P41146). Put plainly: In vitro ORL-1 receptor functional assay ([35S]GTPγS binding). It counts as biochemical. Particulars: mean ± SEM; for EC50: read-out: ORL-1 GTPγS EC50.
For data set [6], the target named is T2, human opioid receptor-like (ORL-1). Put plainly: In vitro ORL-1 receptor binding assay ([3H]-nociceptin displacement). Conditions: read-out: Ki [Average ± Std Deviation] ORL-1; membranes from recombinant HEK-293 cells.
The target of data set [7] is T1, μ-opioid receptor. The data set is described as follows: In vitro mu-opioid receptor binding assay ([3H]-diprenorphine displacement). Conditions: read-out: Ki [Average ± Std Deviation] Opioid Receptor Mu.

Regarding `O=C(O)c1nc2ccccc2n([C@H]2C[C@H]3CC[C@@H](C2)N3C2CCCCCCC2)c1=O`, the “maximum % reversal of thermal hyperalgesia” value in data set [1] (3 hours after administration) is listed as “about 80%”.

Turning to `O=C(O)c1nc2ccccc2n([C@H]2C[C@H]3CC[C@@H](C2)N3C2CCCCCCCCCC2)c1=O`, the “abnormal behavioral side effects, such as sedation, hyperactivity and/or hypoactivity” value in data set [2] was “reduced abnormal behavioral side effects”.

As for “(S)-2-(4-((endo)-9-cyclooctyl-9-azabicyclo[3.3.1]nonan-3-yl)-3-oxo-3,4-dihydroquinoxaline-2-carboxamido)-2-phenylacetic acid”, the Ki in data set [3] was found to be 0.106 µM; in data set [6] it was 0.009 µM; on μ-opioid receptor [7], 0.443 µM. For the same molecule, the “Kappa opioid receptor GTPγS Emax” value at kappa opioid receptor was 8.7 ± 1.3%. For the same molecule, the EC50 stood at 0.208 µM on kappa opioid receptor, 5.26 µM on μ-opioid receptor [4] (read-out: Mu opioid receptor GTPγS EC50) and 0.0531 µM in data set [5]. Also, the “Mu opioid receptor GTPγS Emax” value at μ-opioid receptor [4] came to 12 ± 1.8%. For the same molecule, in data set [5], the “ORL-1 GTPγS Emax” value is 57.7 ± 2^ %.

Consider `O=C(O)c1nc2ccccc2n([C@H]2C[C@H]3CCC[C@@H](C2)N3C2CCCCCCC2)c1=O`, for which the “ED50 value for reversal of thermal hyperalgesia” value in data set [1] (1 hour after administration) was found to be 2.7 mg/kg; in data set [1] (3 hours after administration), 3.8 mg/kg; in data set [1] (5 hours after administration) it was 2.3 mg/kg. Moreover, the “maximum % reversal of thermal hyperalgesia” value in data set [1] (3 hours after administration) is on record as “about 80%”.

As to “2454441-cyclooctylpiperidin-4-yl)-3-oxo-3,4-dihydroquinoxalin-2-yl)hexahydropyrrolo[3,4-c]pyrrol-2(1H)-yl)-2-oxoacetic acid”, the figures for the Ki (in data set [3]; in data set [6]; at μ-opioid receptor [7]) were above 20 µM, 0.0714 µM and 2.92 µM, respectively. On kappa opioid receptor, the “Kappa opioid receptor GTPγS Emax” value was 0.3%. The EC50 at kappa opioid receptor is above 20 µM; in data set [5], 1.62 µM. In addition, in data set [5], the “ORL-1 GTPγS Emax” value is on record as 69.7 ± 5.2%.

For the molecule `O=C(O)c1nc2ccccc2n([C@H]2C[C@H]3CCC[C@@H](C2)N3C2CC3CCCC(C3)C2)c1=O` (stereo partly drawn) [Compound 362, 4-((endo)-9-((exo)-bicyclo[3.3.1]nonan-3-yl)-9-azabicyclo[3.3.1]nonan-3-yl)-3-oxo-3,4-dihydroquinoxaline-2-carboxylic acid], the figures for the “ED50 value for reversal of thermal hyperalgesia” value in data set [1] (1 hour after administration), in data set [1] (3 hours after administration) and in data set [1] (5 hours after administration) were 0.8 mg/kg, 1.5 mg/kg and 3.0 mg/kg, respectively.

Take “1-(4-(3-(hexahydropyrrolo[3,4-c]pyrrol-2(1H)-yl)-2-oxo-3,4-dihydroquinoxalin-1(2H)-yl)piperidin-1-yl)cyclooctanecarboxylic acid”: in data set [6], the Ki is above 100 µM.
